For experiment [1], the target named is T1, LdCYP5122A1 (Leishmania donovani, UniProt A0A3S7X0B6).
T1 sequence (A0A3S7X0B6 61-592): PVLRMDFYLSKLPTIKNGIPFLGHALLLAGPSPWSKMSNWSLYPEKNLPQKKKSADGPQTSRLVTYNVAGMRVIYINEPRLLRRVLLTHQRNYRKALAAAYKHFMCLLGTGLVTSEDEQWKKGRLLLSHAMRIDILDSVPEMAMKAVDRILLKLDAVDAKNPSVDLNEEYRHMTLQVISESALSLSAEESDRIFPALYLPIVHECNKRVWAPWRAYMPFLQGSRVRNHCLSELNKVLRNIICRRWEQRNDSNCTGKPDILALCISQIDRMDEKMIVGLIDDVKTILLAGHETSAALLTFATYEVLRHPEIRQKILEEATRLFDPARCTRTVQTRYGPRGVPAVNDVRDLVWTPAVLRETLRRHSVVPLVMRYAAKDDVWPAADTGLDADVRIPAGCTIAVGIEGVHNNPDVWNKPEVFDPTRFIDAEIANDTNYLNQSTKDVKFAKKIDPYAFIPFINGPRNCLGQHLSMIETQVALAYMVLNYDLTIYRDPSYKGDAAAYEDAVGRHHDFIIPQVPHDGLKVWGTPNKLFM

Experiment [2] has as its target T1, LdCYP5122A1. The experiment is described as follows: biochemical.

`CC[C@@H]([C@H](C)O)n1ncn(-c2ccc(N3CCN(c4ccc(OC[C@@H]5CO[C@@](Cn6cncn6)(c6ccc(F)cc6F)C5)cc4)CC3)cc2)c1=O` [Posaconazole]: the “SI (selectivity index) = IC50 against LdCYP5122A1/IC50 against LdCYP51” value on LdCYP5122A1 [1] is 25. Moreover, on LdCYP5122A1 [2], the IC50 (in general, the concentration that inhibits the measured activity by half) turned out to be 1500 ± 300 nM.

Source of the values: paper PMC11528044 (Nature Communications, 2024).
